Measured values from IntAct's records for PubMed 35512704.

B1: RAC-alpha serine/threonine-protein kinase (Homo sapiens), P31749 (parent)
chain: MSDVAIVKEGWLHKRGEYIKTWRPRYFLLKNDGTFIGYKERPQDVDQREAPLNNFSVAQCQLMKTERPRPNTFIIRCLQWTTVIERTFHVETPEEREEWTTAIQTVADGLKKQEEEEMDFRSGSPSDNSGAEEMEVSLAKPKHRVTMNEFEYLKLLGKGTFGKVILVKEKATGRYYAMKILKKEVIVAKDEVAHTLTENRVLQNSRHPFLTALKYSFQTHDRLCFVMEYANGGELFFHLSRERVFSEDRARFYGAEIVSALDYLHSEKNVVYRDLKLENLMLDKDGHIKITDFGLCKEGIKDGATMKTFCGTPEYLAPEVLEDNDYGRAVDWWGLGVVMYEMMCGRLPFYNQDHEKLFELILMEEIRFPRTLGPEAKSLLSGLLKKDPKQRLGGGSEDAKEIMQHRFFAGIVWQHVYEKKLSPPFKPQVTSETDTRYFDEEFTAQMITITPPDQDDSMECVDSERRPHFPQFSYSASGTA
partner: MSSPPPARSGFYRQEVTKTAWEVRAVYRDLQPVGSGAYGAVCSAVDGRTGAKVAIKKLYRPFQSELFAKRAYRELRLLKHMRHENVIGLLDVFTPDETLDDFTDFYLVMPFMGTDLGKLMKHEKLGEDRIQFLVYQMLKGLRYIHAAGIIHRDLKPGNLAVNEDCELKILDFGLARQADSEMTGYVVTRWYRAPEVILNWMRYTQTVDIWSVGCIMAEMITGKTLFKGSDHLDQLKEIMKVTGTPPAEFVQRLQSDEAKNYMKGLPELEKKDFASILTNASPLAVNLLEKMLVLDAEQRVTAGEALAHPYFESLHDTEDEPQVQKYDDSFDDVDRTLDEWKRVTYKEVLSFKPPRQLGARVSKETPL
B2: RAC-alpha serine/threonine-protein kinase (Homo sapiens), P31749 (parent)
chain: B1 chain
partner: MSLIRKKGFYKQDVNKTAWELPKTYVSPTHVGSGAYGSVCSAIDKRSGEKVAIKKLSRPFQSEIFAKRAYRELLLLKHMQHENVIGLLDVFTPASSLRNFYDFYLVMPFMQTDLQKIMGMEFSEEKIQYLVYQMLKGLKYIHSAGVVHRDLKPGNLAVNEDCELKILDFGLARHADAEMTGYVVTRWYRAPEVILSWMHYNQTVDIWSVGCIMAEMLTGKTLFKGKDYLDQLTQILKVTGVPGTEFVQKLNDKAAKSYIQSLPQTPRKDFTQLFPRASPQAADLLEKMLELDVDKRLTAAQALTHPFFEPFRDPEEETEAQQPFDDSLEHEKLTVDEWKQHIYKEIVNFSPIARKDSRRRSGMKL
B3: RAC-alpha serine/threonine-protein kinase (Homo sapiens), P31749 (parent)
chain: B1 chain
partner: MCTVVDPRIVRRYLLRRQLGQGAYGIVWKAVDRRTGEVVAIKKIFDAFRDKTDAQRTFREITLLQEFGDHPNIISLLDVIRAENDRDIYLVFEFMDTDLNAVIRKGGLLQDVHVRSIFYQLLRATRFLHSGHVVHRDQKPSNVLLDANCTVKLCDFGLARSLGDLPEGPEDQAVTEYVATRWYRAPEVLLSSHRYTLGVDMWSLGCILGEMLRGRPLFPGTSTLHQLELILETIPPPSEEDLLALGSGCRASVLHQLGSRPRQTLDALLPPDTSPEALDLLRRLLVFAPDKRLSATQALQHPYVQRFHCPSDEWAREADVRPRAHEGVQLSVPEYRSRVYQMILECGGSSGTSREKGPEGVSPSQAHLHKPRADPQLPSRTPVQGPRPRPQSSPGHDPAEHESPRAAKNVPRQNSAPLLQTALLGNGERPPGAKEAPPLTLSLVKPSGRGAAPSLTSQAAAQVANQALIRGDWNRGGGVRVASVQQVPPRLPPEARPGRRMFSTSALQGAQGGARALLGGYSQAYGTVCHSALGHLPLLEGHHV
B4: RAC-alpha serine/threonine-protein kinase (Homo sapiens), P31749 (parent)
chain: B1 chain
partner: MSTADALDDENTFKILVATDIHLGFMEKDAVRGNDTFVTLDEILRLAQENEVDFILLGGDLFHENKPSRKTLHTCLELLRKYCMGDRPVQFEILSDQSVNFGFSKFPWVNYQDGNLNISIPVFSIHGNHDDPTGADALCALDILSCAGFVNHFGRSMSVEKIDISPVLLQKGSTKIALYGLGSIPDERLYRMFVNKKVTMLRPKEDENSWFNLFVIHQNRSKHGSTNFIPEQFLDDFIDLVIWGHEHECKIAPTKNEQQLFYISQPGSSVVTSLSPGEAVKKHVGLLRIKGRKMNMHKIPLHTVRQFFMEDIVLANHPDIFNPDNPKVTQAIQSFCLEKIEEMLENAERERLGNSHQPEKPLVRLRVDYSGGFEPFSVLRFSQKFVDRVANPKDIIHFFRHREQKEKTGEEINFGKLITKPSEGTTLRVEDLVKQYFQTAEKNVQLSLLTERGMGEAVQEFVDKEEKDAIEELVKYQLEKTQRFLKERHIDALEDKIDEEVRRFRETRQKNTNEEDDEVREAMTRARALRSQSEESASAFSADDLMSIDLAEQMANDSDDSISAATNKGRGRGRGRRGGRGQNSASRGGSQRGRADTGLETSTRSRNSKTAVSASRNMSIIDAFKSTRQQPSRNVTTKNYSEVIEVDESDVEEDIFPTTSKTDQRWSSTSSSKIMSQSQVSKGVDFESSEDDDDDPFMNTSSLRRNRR

Variants of: B1
Conditions: with mk12_human MAPK12, P53778

Question: With E17K as the variant, how does the “effect of a mutation on the interaction” value read?
Answer: causing an interaction

Variants of: B2
Conditions: with mk13_human MAPK13, O15264

Question: E17K was tested. Which “effect of a mutation on the interaction” value did it give?
Answer: causing an interaction

Variants of: B2
Conditions: with mk13_human MAPK13, O15264
Remark: another data set of the same source

Question: How did the “effect of a mutation on the interaction” value turn out when E17K was run?
Answer: increasing interaction strength

Variants of: B3
Conditions: with mk15_human MAPK15, Q8TD08

Question: E17K was tested. Which “effect of a mutation on the interaction” value did it give?
Answer: causing an interaction

Variants of: B3
Conditions: with mk15_human MAPK15, Q8TD08
Remark: another data set of the same source

Question: E17K was tested. Which “effect of a mutation on the interaction” value did it give?
Answer: increasing interaction strength

Variants of: B4
Conditions: with mre11_human MRE11, P49959

Question: E17K was tested. Which “effect of a mutation on the interaction” value did it give?
Answer: causing an interaction
